Test results reported in US20090318504A1, “Use of GAL3 receptor antagonists for the treatment of depression and/or anxiety and compounds useful in such methods” (priority 2001, published 2009).

Sequences of proteins named here, by UniProt entry; tags and fusion partners are left off. Residues count along the entry.
UniProt Q9WTR4, 1-597: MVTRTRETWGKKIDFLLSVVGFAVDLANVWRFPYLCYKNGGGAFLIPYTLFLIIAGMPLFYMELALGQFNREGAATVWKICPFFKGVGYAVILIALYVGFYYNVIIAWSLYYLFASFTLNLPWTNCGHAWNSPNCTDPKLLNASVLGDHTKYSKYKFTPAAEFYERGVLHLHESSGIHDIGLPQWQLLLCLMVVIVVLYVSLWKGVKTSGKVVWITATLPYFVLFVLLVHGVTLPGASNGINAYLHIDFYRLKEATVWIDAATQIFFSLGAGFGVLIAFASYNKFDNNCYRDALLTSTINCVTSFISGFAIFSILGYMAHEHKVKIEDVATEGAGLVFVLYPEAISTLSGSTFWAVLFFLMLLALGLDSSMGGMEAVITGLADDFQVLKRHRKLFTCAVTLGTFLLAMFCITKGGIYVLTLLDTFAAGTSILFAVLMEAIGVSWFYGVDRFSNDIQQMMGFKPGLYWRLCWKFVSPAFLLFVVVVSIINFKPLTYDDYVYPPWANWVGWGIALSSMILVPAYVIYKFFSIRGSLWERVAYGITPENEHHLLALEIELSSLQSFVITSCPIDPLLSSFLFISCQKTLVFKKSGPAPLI

Key:
[1] = tested on: norepinephrine transporter; assay: Binding at native NE transporter; conditions: Ki at rNE Uptk divided by Ki at hGAL3
Description: (§1) The binding properties of the compounds of the present invention were evaluated at one or more cloned receptors or native, tissue-derived transporters, using protocols described below.
(§2) The methods to determine binding affinity at native transporters are described in the following publications: 5HT transporter and NE transporter (Owens et al., 1997), and DA transporter (Javitch et al, 1984).

[2] = biological target: norepinephrine transporter (Rattus norvegicus, UniProt Q9WTR4); assay: Binding at native NE transporter; conditions: read-out: rNE Uptk Ki; native transporter, rNE Uptk
Description: as §1, §2

[3] = tested on: male Sprague-Dawley rats; assay: Rat Forced Swim Test (FST); conditions: conclusion of the study
Description: The procedure used in this study was similar to that previously described (Porsolt, et al., 1978), except the water depth (30 cm in this procedure). The greater depth in this test prevented the rats from supporting themselves by touching the bottom of the cylinder with their feet. Swim sessions were conducted by placing rats in individual plexiglass cylinders (46 cm tall×20 cm in diameter) containing 23-25° C. water 30 cm deep (Porsolt, et al. used a depth of only 15 cm; also, see Detke, et al., 1995). Two swim tests were conducted always between 1200 and 1800 hours: an initial 15-min pretest followed 24 h later by a 5-minute test. Drug treatments were administered 60 minutes before the 5-minute test period. All other test sessions were conducted between 1300 to 1700 hours. Following all swim sessions, rats were removed from the cylinders, dried with paper towels and placed in a heated cage for 15 minutes and returned to their home cages. All test sessions were videotaped using a Panasonic color video camera and recorder for scoring later.
Male Sprague-Dawley rats (Taconic Farms, N.Y.) were used in all experiments. Rats were housed in pairs and maintained on a 12:12 h light-dark cycle. Rats were handled for 5 minutes each day for 5 days prior to behavioral testing.
The rat's behavior was rated at 5 second intervals during the 5 minute test as one of the following:
1. […]

`COC[C@@H]1[C@@H](c2ccccc2)OCCN1c1nc(Nc2ccc(C)cc2)cc(N2CCCCC2)n1` was tested, and the selectivity ratio rNE Uptk [1] was greater than 100, the Ki [2] was 37.6 µM and the “Overall profile in the Forced Swim Test” value [3] was “may have antidepressant properties in this model”.
